Source: patent US7115632B1, “Sulfonyl aryl or heteroaryl hydroxamic acid compounds” (priority 1999, dated 2006)

Sequences of proteins named here, by UniProt entry; tags and fusion partners are left off. Residues count along the entry.
UniProt P03956, 100-469 limits assumed: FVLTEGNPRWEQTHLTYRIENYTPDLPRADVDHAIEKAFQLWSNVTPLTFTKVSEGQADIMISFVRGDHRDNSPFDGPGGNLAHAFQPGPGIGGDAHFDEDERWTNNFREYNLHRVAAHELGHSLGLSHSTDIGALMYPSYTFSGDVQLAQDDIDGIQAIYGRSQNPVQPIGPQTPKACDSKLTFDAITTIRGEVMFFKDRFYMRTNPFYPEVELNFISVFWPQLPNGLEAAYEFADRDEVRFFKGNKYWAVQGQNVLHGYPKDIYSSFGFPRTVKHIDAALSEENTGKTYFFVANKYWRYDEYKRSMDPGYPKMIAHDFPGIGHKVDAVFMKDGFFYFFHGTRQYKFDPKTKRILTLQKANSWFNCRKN

Target: MMP-1 (Homo sapiens, UniProt P03956)
Test: In vitro metalloprotease inhibition, fluorogenic MCA peptide substrate
Format: biochemical
Settings: read-out: MMP-1 IC50; Inhibition Table A

O=C(O)c1ccccc1S(=O)(=O)N1CCC(Oc2ccc(C(F)(F)F)cc2)CC1
IC50: > 10 µM
